The source of these data is patent publication US20140296484A1, “Cyclin Based Inhibitors of CDK2 and CDK4” (University of South Carolina, priority 2013, published 2014).

Amino acid sequences for entries named in this document (tags omitted).
UniProt P24385, whole entry: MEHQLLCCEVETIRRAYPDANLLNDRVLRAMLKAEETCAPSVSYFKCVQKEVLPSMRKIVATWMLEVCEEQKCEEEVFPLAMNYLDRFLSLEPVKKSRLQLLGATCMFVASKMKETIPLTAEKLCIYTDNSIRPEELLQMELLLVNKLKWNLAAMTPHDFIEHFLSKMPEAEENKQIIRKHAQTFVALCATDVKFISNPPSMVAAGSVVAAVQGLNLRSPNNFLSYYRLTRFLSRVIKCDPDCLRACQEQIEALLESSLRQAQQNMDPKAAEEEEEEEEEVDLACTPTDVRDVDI

One assay deals with CDK2/Cyclin A2 (Homo sapiens, UniProt P20248). The assay can be described thus: In vitro kinase assay, 32P filter capture with GST-Rb substrate. The class given is biochemical.
Another assay has as its target CDK2/E (Homo sapiens, UniProt P24864). The assay can be described thus: In vitro kinase assay.
For the next assay, the target named is CDK4/Cyclin D1 (Homo sapiens, UniProt P24385). The assay can be described thus: In vitro kinase assay, 32P filter capture with GST-Rb substrate. The class given is biochemical.

The term IC50 denotes the midpoint of a concentration-inhibition curve. A low value points to higher potency. Consider `CC(C)C[C@H](NC(=O)[C@H](CCCNC(=N)N)NC(=O)[C@H](CCCNC(=N)N)NC(=O)[C@H](CCCCN)NC(=O)[C@H](C)NC(=O)[C@@H](N)CO)C(=O)N[C@@H](Cc1ccco1)C(=O)NCC(N)=O` [SAKRRLX1G], for which the IC50 against CDK2/Cyclin A2 is 9.1 µM; at CDK2/E it was 4 µM.
Turning to `CC(C)C[C@H](NC(=O)[C@H](CCCNC(=N)N)NC(=O)[C@H](CCCNC(=N)N)NC(=O)[C@H](CCCCN)NC(=O)[C@H](C)NC(=O)[C@@H](N)CO)C(=O)N[C@@H](CC1CCC1)C(=O)NCC(N)=O` [SAKRRLX4G], the results for the IC50 against CDK2/Cyclin A2 and at CDK4/Cyclin D1 were 100 µM and 74 µM, respectively.
Compound `CC(C)C[C@H](NC(=O)[C@H](CCCNC(=N)N)NC(=O)[C@H](CCCNC(=N)N)NC(=O)[C@H](CCCCN)NC(=O)[C@H](C)NC(=O)[C@@H](N)CO)C(=O)N[C@@H](CC1CCCCC1)C(=O)NCC(N)=O` [SAKRRLX6G] showed an IC50 on CDK2/Cyclin A2 of 83 µM. That is a double-digit micromolar value.
With `CC(C)C[C@H](NC(=O)[C@H](CCCNC(=N)N)NC(=O)[C@H](CCCNC(=N)N)NC(=O)[C@H](CCCCN)NC(=O)[C@H](C)NC(=O)[C@@H](N)CO)C(=O)N[C@@H](Cc1cccnc1)C(=O)NCC(N)=O` [SAKRRLX7G], half-maximal inhibition on CDK2/Cyclin A2 (IC50) was put at 80 µM.
